Assay: Solubility of crystals in HFA 134/Ethanol Blends

## levalbuterol L-tartrate
Actual Ethanol % 0.00, Day 2
  Solubility in HFA 134/Ethanol Blends: 0.00 µg/g
Actual Ethanol % 0.00, Day 6-8
  Solubility in HFA 134/Ethanol Blends: 0.02 µg/g
Actual Ethanol % 0.00, Day 57-65
  Solubility in HFA 134/Ethanol Blends: 0.12 µg/g
Actual Ethanol % 2.01, Day 1
  Solubility in HFA 134/Ethanol Blends: 0.07 µg/g
Actual Ethanol % 2.01, Day 2
  Solubility in HFA 134/Ethanol Blends: 0.10 µg/g
Actual Ethanol % 2.01, Day 6-8
  Solubility in HFA 134/Ethanol Blends: 0.44 µg/g
Actual Ethanol % 2.01, Day 57-65
  Solubility in HFA 134/Ethanol Blends: 1.18 µg/g
Actual Ethanol % 5.28, Day 1
  Solubility in HFA 134/Ethanol Blends: 0.69 µg/g
Actual Ethanol % 5.28, Day 2
  Solubility in HFA 134/Ethanol Blends: 0.94 µg/g
Actual Ethanol % 5.28, Day 6-8
  Solubility in HFA 134/Ethanol Blends: 1.81 µg/g
Actual Ethanol % 5.28, Day 57-65
  Solubility in HFA 134/Ethanol Blends: 2.97 µg/g
Actual Ethanol % 9.80, Day 1
  Solubility in HFA 134/Ethanol Blends: 1.65 µg/g
Actual Ethanol % 9.80, Day 2
  Solubility in HFA 134/Ethanol Blends: 2.32 µg/g
Actual Ethanol % 9.80, Day 6-8
  Solubility in HFA 134/Ethanol Blends: 5.30 µg/g
Actual Ethanol % 9.80, Day 57-65
  Solubility in HFA 134/Ethanol Blends: 6.82 µg/g
HFA 134/ethanol blends
  solubility in ethanol compared with levalbuterol hydrochloride: substantially lower solubility

From US8765153B2, “Levalbuterol salt” (Sunovion Pharmaceuticals Inc., priority 2002, dated 2014)
